Source: US20180092393A1, “IRON NICOTINATE COMPOSITION” (NESTEC S.A., priority 2015, published 2018)
Like-named read-outs stand apart in the source and are kept apart here.

What was measured:
[1] = colour difference vs product with no iron salts, approximately 2.1 mg iron per 100 g, flash pasteurized at 3.05° C. for 2 minutes, 47.3% banana puree

Substance	ΔEab* [1]	ΔEab* ([1]; listed as ferrous nicotinate)	solubility in water
Ferrous nicotinate	2.11	smallest colour change	fully soluble
Ferric pyrophosphate [reference compound]	3.36		
